# Test results taken from PubChem BioAssay AID720631 (The Scripps Research Institute Molecular Screening Center, 2013).
# Chains of the proteins cited; added tags and fusions are not shown. Lines headed by an entry give the natural chain unless they say otherwise; changes in a name come on top.
# UniProt P02675: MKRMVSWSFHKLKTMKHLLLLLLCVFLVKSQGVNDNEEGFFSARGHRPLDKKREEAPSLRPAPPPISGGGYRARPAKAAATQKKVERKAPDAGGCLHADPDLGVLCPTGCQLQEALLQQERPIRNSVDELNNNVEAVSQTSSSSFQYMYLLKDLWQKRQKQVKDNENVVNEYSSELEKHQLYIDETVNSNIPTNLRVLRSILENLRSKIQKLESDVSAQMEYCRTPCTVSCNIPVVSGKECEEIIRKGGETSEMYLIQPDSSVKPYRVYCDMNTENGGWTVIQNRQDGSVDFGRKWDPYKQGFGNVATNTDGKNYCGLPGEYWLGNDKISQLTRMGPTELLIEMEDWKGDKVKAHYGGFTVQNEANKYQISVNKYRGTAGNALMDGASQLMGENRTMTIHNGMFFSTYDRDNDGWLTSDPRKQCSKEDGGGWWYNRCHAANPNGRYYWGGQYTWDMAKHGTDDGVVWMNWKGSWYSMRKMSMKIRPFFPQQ
# The list shows a part of the results, in another mix than the full data. Active and inactive are the calls of the source.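 The calls were made as follows: active = inhibition above the mean of compounds lying within the control limits plus 3 SD (cut at about 16% in these data); inactive = the rest.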
# Target: Fibrinogen beta chain (Homo sapiens) (UniProt P02675)
# Assay: Tn6 displacement from DD(E) complex – biochemical, fluorescence polarization, human fibrin, Tn6 probe, confirmation (AID 720631);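 also: 0% = plate median of compound wells and 100% = inhibitor peptide control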
# Details: FP displacement of TRITC-Tn6 peptide from DD(E); at 8.3 µM; stronger effect = higher value; 0% = per-plate median of test wells
compound,measurement,value
Nc1cccc2c([As](=O)(O)O)cccc12,inhibition,inactive: 15%
